Values of other authors in US5071857A, “2,6-dioxopiperidine derivatives, their preparation and pharmaceutical compositions containing them” (National Research Development Corporation, priority 1983, dated 1991).

Test system: aromatase
Conditions: background; cited from earlier work

## CCC1(c2ccc(N)cc2)CCC(=O)NC1=O (stereo not shown) [aminoglutethimide, reference compound]
  inhibition in vivo of aromatase in peripheral tissue: ability to inhibit in vivo the activity of the enzyme aromatase in peripheral tissue
